# Values of other authors in patent US5167963A, “8,10-dideazatetrahydrofolic acid derivatives” (SRI International, priority 1990, dated 1992).
# Details: in words; DeGraw et al; cited from earlier work
smiles,measurement,value
Nc1nc2ccc(CNc3ccc(C(=O)N[C@@H](CCC(=O)O)C(=O)O)cc3)nc2c(=O)[nH]1 [8-deazafolic acid],antifolate activity,active antifolates
